{"source": "patent US11767515B2", "about": "“Colonic organoids and methods of making and using same” (Children's Hospital Medical Center, priority 2016, dated 2023)", "key": {"[1]": {"test_system": "IPSC72.3 inducible NEUROG3 line organoids", "test": "NEUROG3 induction of enteroendocrine cells in organoids", "format": "cell-based, human", "settings": "DOX pulse, additional 7 days in culture", "method": "Generation of NEUROGENIN3 inducible line. To generate a doxycycline inducible NEUROG3 line, Applicant transduced IPSC 72.3 cells with pINDUCER21-NEUROG3 lentivirus and selected using 250 µg/mL of G418. Both the IPSC 72.3 cell line and the inducible NEUROG3 have been described previously (McCracken et al., 2014). Stably transduced cells were differentiated into mid/hindgut spheroids and then patterned into HIOs or HCOs. Spheroids were grown for 28 days and were pulsed with 0.5 ug/mL of doxycycline for 8 hrs. At day 35, organoids were collected and were analyzed by QPCR and IF."}, "human gut tube spheroids [2]": {"test_system": "human gut tube spheroids", "test": "Patterning of human gut tube spheroids (pSMAD1/5/8 and SATB2 staining)", "format": "cell-based", "method": "Generation of human midgut/hindgut spheroids. Human intestinal organoids were generated and maintained as previously described (Watson et al., 2014). Human embryonic stem cells and induced pluripotent stem cells were grown in feeder-free conditions in six-well Nunclon surface plates (Nunc) coated with Matrigel (basement membrane matrix, BD Biosciences) and maintained in mTESR1 media (Stem Cell Technologies). For induction of definitive endoderm (DE), human ES or iPS cells were passaged with Accutase (Invitrogen) and plated at a density of 100,000 cells per well in a Matrigel-coated, Nunclon surface 24-well plate. […]\n(§1) Tissue processing, immunofluorescence and microscopy. […] Images were captured on a Nikon A1 confocal microscope and analyzed using Imaris Imaging Software (Bitplane). […]\n(§2) Quantification of immunofluorescence images. Image quantitation of whole embryos was done by splitting images into separated channels and then measuring pixel area using ImageJ (NIH). Pixel area was determined for each channel, the ratio between channels was determined and the ratio for control treated embryos was represented as 100. Quantitation of in vitro and in vivo grown organoids was done on sections from which images were captured as explained above. The number of CDX2, GATA4 and SATB2 positive nuclei were quantified using the spot function in [marls following calibration with human biopsy samples."}, "transplanted organoids": {"test_system": "transplanted organoids", "test": "Transplantation of patterned organoids under the mouse kidney capsule", "format": "in vivo", "settings": "under the mouse kidney capsule for 6-10 weeks", "method": "Animals. Immune-deficient NOD-SCID IL-2Rynu” (NSG) mice, 8-16 weeks old, were used in transplantation experiments (obtained from the Comprehensive Mouse and Cancer Core Facility, Cincinnati, Ohio). Wild type mice were used for studies on mouse fetal intestine. All mice were housed in the animal facility at the Cincinnati Children's Hospital Medical Center (CCHMC). All experiments were performed with the approval of the Institutional Animal Care and Use Committee of CCHMC.\nTransplantation of human intestinal organoids. NSG mice were kept on antibiotic chow (275 p.p.m. Sulfamethoxazole and 1.365 p.p.m. Trimethoprim; Test Diet). Food and water was provided ad libitum before and after surgeries. A single HIO, matured in vitro for 28 days, was removed from Matrigel, washed with cold phosphate-buffered saline (DPBS; Gibco), and embedded into purified type I collagen (rat tail collagen; BD Biosciences) 12 hours before surgery to allow for formation of a solidified gel plug. These plugs were then placed into standard growth media overnight in intestinal growth medium (Advanced DMEM/F-12, B27, 15 mM HEPES, 2 mM L-glutamine, penicillin-streptomycin) supplemented with 100 ng/mL EGF (R&D). […]\nas §1"}, "human gut tube spheroids [3]": {"test_system": "human gut tube spheroids", "test": "HOX/MSX2 gene expression in patterned gut tube spheroids after 3 days (RNA-seq, QPCR)", "format": "cell-based", "method": "Patterning midgut/hingut spheroids into HIOs and HCOs. Spheroids were collected from 24 well plate and plated in Matrigel (BD). To generate proximal HIOs, spheroids were overlayed with intestinal growth medium (Advanced DMEM/F-12, N2, B27, 15 mM HEPES, 2 mM L-glutamine, penicillin-streptomycin) supplemented with 100 ng/mL EGF (R&D) alone, or 100 ng/mL EGF with 100 ng/ml NOGGIN (R&D). To generate HCOs, spheroids were overlayed with 100 ng/mL EGF plus 100 ng/mL BMP (R&D). For SHH experiments, 1 pM SAG (Tocris), 5 pM SAG or 2.5 pM Cyclopamine (Tocris) were added to control media for initial 3 days after which RNA samples were collected. […]\nRNA isolation and QPCR. […] QPCR was performed using Quantitect SYBR® Green PCR kit (Qiagen) and a QuantStudio™ 6 Flex Real-Time PCR System (Applied Biosystems).\nRNA-seq sequence assembly abundance estimation. […] The quality of the Illumina sequencing run was evaluated by analyzing FASTQ data for each sample using FastQC version 0.10.1 http://www.bioinformatics.babraham.ac.uk/projects/fastqc to identify features of the data that may indicate quality problems (e.g. low-quality scores, over-represented sequences, inappropriate GC content, etc.). […] Briefly, Applicant aligned reads to the reference transcriptome (UCSC hg19) using TopHat version 2.0.13 and Bowtie version 2.2.5 (Langmead et al., 2009). […]"}, "organoid mesenchyme": {"test_system": "organoid mesenchyme", "test": "Patterning markers in isolated organoid mesenchyme cultures (QPCR)", "format": "cell-based, human", "settings": "mesenchymal cell cultures expanded for 2-3 weeks", "method": "Growth of organoid mesenchyme. Mesenchymal cells from organoids which attach to the bottom of the 24-well plate attach and grow in 2 dimensions. To expand mesenchymal cells from organoids, DMEM 10% FBS+L-glutamine+ penicillin-streptomycin was added to wells from which organoids had been harvested at 14 days. Media was changed twice weekly for a total of 2-3 weeks until near 100% confluence was achieved.\n(§3) RNA isolation and QPCR. RNA was extracted using Nucleospin® RNA extraction kit (Macharey-Nagel) and reverse transcribed into cDNA using Superscript VILO (Invitrogen) according to manufacturer's protocols. QPCR primers were designed using the qPrimerDepot webased tool (primerdepot.nci.nih.gov). QPCR was performed using Quantitect SYBR® Green PCR kit (Qiagen) and a QuantStudio™ 6 Flex Real-Time PCR System (Applied Biosystems)."}, "[4]": {"test_system": "human intestinal organoids", "test": "Regional markers in organoids after prolonged in vitro culture (IF, QPCR)", "format": "cell-based", "method": "Patterning midgut/hingut spheroids into HIOs and HCOs. Spheroids were collected from 24 well plate and plated in Matrigel (BD). To generate proximal HIOs, spheroids were overlayed with intestinal growth medium (Advanced DMEM/F-12, N2, B27, 15 mM HEPES, 2 mM L-glutamine, penicillin-streptomycin) supplemented with 100 ng/mL EGF (R&D) alone, or 100 ng/mL EGF with 100 ng/ml NOGGIN (R&D). To generate HCOs, spheroids were overlayed with 100 ng/mL EGF plus 100 ng/mL BMP (R&D). For SHH experiments, 1 pM SAG (Tocris), 5 pM SAG or 2.5 pM Cyclopamine (Tocris) were added to control media for initial 3 days after which RNA samples were collected. Media was changed at 3 days with only EGF being maintained in the media for all patterning conditions. Media was then changed twice weekly thereafter. HIOs and HCOs were replated in fresh Matrigel every 14 days.\nTissue processing, immunofluorescence and microscopy. Tissues were fixed for 1-3 hours in 4% paraformaldehyde (PFA) on ice depending on the size of the tissue. Organoids and transplant engraftments were frozen in OCT. OCT sections were blocked using donkey serum (5% serum in 1×PBS plus 0.5% Triton-X) for 30 min and incubated with primary antibody overnight at 4° C. Slides were then washed 3× with 1×PBS plus 0.5% Triton-X and incubated in secondary antibody with DAPI in blocking buffer for 2 h at room temperature. See Table 2 for a list of antibodies and respective dilutions. Slides were then washed 2× with 1×PBS plus 0.5% Triton-X followed by a final wash in 1×PBS. Coverslips were then mounted using Fluoromount-G® (SouthernBiotech). Images were captured on a Nikon A1 confocal microscope and analyzed using Imaris Imaging Software (Bitplane). For whole-mount staining, tissues were processed similarly as above and then cleared in Murray's solution. Imaging was performed with a Nikon A1 confocal microscope.\nas §2, §3"}, "[5]": {"settings": "28-day old organoids after initial 3 day treatment"}}, "data": [{"substance": "BMP2: exogenous recombinant human BMP2, BMP activator used to generate HCOs", "values": [{"measurement": "INSL5 positive cells (colonic EEC marker) after NEUROG3 induction", "setting": "[1]", "value": "only observed INSL5 positive cells in BMP2 treated organoids"}, {"measurement": "SATB2 protein in the epithelium", "setting": "human gut tube spheroids [2]; 3 days of treatment, compared to NOGGIN and control cultures", "value": "high levels of SATB2 protein"}, {"measurement": "BMP signaling levels by nuclear pSMAD1/5/8 staining", "setting": "human gut tube spheroids [2]; spheroids treated for 12 hours, 100 ng/mL", "value": "rapid accumulation of pSMAD158"}, {"measurement": "epithelial morphology of transplanted organoids", "setting": "transplanted organoids", "value": "contained crypts but lacked villi"}, {"measurement": "HOXA13 induction in the presence of the SHH inhibitor Cyclopamine", "setting": "human gut tube spheroids [3]; BMP+Cyclopamine treated organoids after 3 days", "value": "sufficient to induce HOXA13"}, {"measurement": "HOX gene expression (RNA-seq)", "setting": "human gut tube spheroids [3]; gut tube spheroids treated for 3 days", "value": "down regulation of anterior HOX genes and up regulation of posterior HOX genes"}, {"measurement": "HOXA13 expression in mesenchyme", "setting": "organoid mesenchyme", "value": "high levels HOXA13"}, {"measurement": "HOXD3 expression / proximal identity of mesenchyme", "setting": "organoid mesenchyme", "value": "decreased expression of HOXD3"}, {"measurement": "SATB2 expression after re-patterning with BMP2", "setting": "[4]; 3-day NOGGIN-treated spheroids shifted to BMP2-containing media for 3 days", "value": "did not express SATB2"}, {"measurement": "Levels of ONECUT1 (marker of proximal small intestine)", "setting": "[4]; [5]", "value": "absent"}, {"measurement": "SATB2 in the epithelium", "setting": "[4]; [5]", "value": "broadly expressed in nearly all of the CDX2+ epithelial cells"}, {"measurement": "HOXB13 and HOXD13 posterior patterning", "setting": "[4]; 28-day old organoids, prolonged culture in vitro", "value": "maintained posterior patterning"}, {"measurement": "MUC5B staining (colon-specific goblet cell marker)", "setting": "[4]; 28-day organoids", "value": "present"}, {"measurement": "goblet cells by intracellular MUC2 staining", "setting": "[4]; at 28 days", "value": "high numbers of goblet cells"}]}]}
